Measurements published in patent publication US20260373119A1, “NOVEL COMPOUND, AND COMPOSITION FOR PREVENTING OR TREATING HER2-POSITIVE CANCER, COMPRISING SAME” (EWHA UNIVERSITY - INDUSTRY COLLABORATION FOUNDATION, priority 2022, published 2026).

Experiments:
[1] = system: TZMB-sensitive cells; assay: treatment of TZMB-sensitive cells; type: cell-based; settings: parent BT474 and NCI-N87
Protocol: (§1) The ability of the candidate compound to overcome trastuzumab resistance was evaluated. Specifically, compounds 1 through 22 were tested on JIMT-1 cells (ER-/PR-/HER2+ subtype with innate TZMB resistance), TZMB-refractory BT474 cells (BT-TR; ER+/PR+/HER2+ subtype with acquired resistance), and TZMB-refractory NCI-N87 cells (NCI-N87 TR; HER2+ subtype with acquired resistance).

[2] = system: TZMB-resistant cells; assay: treatment of TZMB-resistant cells; type: cell-based; settings: BT474 TR, NCI-N87 TR, JIMT-1
Protocol: as §1

[3] = system: TZMB-resistant cells; assay: clonal analysis; type: cell-based; settings: 14 days; TZMB 10 or 20 μg/mL, YK1 0.5 or 1 μM
Protocol: To validate the above results, clonal analysis was performed. Specifically, cells were seeded at a density of 2,000 cells/well in a 6-well culture plate, treated with either TZMB (10 or 20 μg/mL) or YK1 (0.5 or 1 μM), or left untreated, and incubated for 14 days. The incubated cells were fixed with 100% methanol for 1 hour and then stained with 200 μL of crystal violet solution per well. After washing the cells with tap water, images were captured using a ChemiDoc bio-image analyzer (Bio-Rad), and quantification was performed with ImageJ software (NIH, Bethesda, MD, USA). All processes following the fixation were conducted at room temperature.

[4] = system: HER2 and downstream signaling (phosphorylated AKT and MAPK); assay: HER2 expression and downstream signaling, TZMB-sensitive and -resistant cells; type: cell-based
Protocol: For western blot analysis, cells were seeded in a 6-well plate and lysed in 1×RIPA lysis buffer (Cell Signaling, USA) containing 1% 0.1 M [COMPOUND LEFT OUT] and 1% 100× protease inhibitor cocktail solution (Genedepot, USA). Total protein levels were standardized using the Pierce™ BCA Protein Assay Kit (Thermo Fisher Scientific, USA) and a microplate reader (Tecan Group Ltd., Switzerland). A total of 20 μg of protein was loaded onto a 10-15% SDS-PAGE acrylamide gel and transferred to a 0.2 μm PVDF membrane (Pall Life Science, USA). The membrane was blocked with 5% skim milk or 5% BSA, and the membrane was cultured with primary antibodies (purchased from Thermo Fisher, Cell Signaling, Santa Cruz, Novus, or MBL) at room temperature for 3 hours or overnight at 4 °C. The blot was washed three times with Tris-buffered saline containing 0.1% Tween20 (1×TBST) and incubated with an HRP-conjugated secondary antibody (GeneTex, USA). Protein bands were detected using ECL solution reagents (GE Healthcare, USA) and the LAS-3000 imaging system (Fuji Photo Film Co., Ltd., Japan), and captured images were analyzed using Multi-Gauge software (Fuji Photo Film Co. Ltd.). The preparation of cell lysates for subsequent analyses was performed using the same method as described for western blot analysis.
The ability of the candidate compound to overcome trastuzumab resistance was evaluated. […]

[5] = JIMT-1 xenograft, body weight; type: in vivo, mice; settings: 4 mg/kg
Protocol: Xenograft mice were generated to evaluate the anticancer effects of the candidate compound. NCI-N87 and JIMT-1 cells (5×10^6 cells), dissolved in 100 μL of 1× phosphate-buffered saline (PBS), were subcutaneously injected into the right flanks of 5-week-old female athymic nude mice (Envigo, USA) or 4-week-old female NOD-SCID mice (Koatech, South Korea). When the tumors reached a volume of 90-100 mm^3, the mice were randomized into designated groups. For the NCI-N87 xenograft, intravenous administration was performed six times at 3-day intervals. For the JIMT-1 xenograft, intraperitoneal administration was performed eight times at 3-day intervals. The candidate compound (hereinafter, YK1) and trastuzumab (TZMB) were each prepared at a concentration of 4 mg/kg, mixed with a DMAC/Tween80/saline (5:10:85) ratio mixture and saline, respectively, and then administered. Tumor size changes were monitored until the mean tumor size in the control group reached 2,000-2,500 mm^3. On day 28 for the NCI-N87 xenograft and day 46 for the JIMT-1 xenograft, the mice were sacrificed, and tumors were excised to determine relative tumor sizes. Tumor length (L) and width (W) were measured with calipers, and tumor volume was calculated using the formula: […]
To assess resistance-avoidance effects in vivo, JIMT-1 xenograft mice were treated with 4 mg/kg of the candidate compound or TZMB.

TZMB: trastuzumab (TZMB), an antibody drug targeting the extracellular domain of the HER2 protein [reference compound]
anticancer effect in TZMB-sensitive cells [1]: effective only in TZMB-sensitive cells | anticancer effect in TZMB-resistant cells [2]: effective only in TZMB-sensitive cells | effect against TZMB resistance in clonal analysis [3]: did not exhibit such effects | HER2 expression and downstream signaling [4]: did not induce such changes | body weight [5]: remained generally consistent
